This passage reports logP value results from patent publication US20110040086A1, “Novel Beta-Lactam Antibiotics, Methods for Their Production, and Their Use” (DRITTE PATENTPORTFOLIO BETEILIGUNGSGESELLSCHAFT MB, priority 2007, published 2011).

This data set in a line: logP value by HPLC according to Donovan et al. The following applies: methanol/0.1% phosphoric acid pH 2.

“7-[2-(2-carbamoyl-3,6-dioxocyclohexa-1,4-dienylamino)-2-(4-hydroxyphenyl)-acetylamino]-desacetoxycephalosporanic acid [1b]” returned a logP value of 1.33.
Next, “7-[2-(2-ethoxycarbonyl-3,6-dioxocyclohexa-1,4-dienylamino)-2-(4-hydroxyphenyl)-acetylamino]-desacetoxycephalosporanic acid [1d]”: 1.76.
Next, “7-{2-2-(2-hydroxyethylcarbamoyl)-3,6-dioxyocyclohexa-1,4-dienylamino]-2-(4-hydroxyphenyl)-acetylamino}-desacetoxycephalosporanic acid [1a]”: 1.00; “7-{2-[2-(2-hydroxyethylcarbamoyl)-3,6-dioxocyclohexa-1,4-dienylamino]-2-phenyl-acetylamino}-desacetoxycephalosporanic acid [1e]”: 1.61.
